These are literature values, as cited in patent US10093983B2 (priority 2011, dated 2018).

Amino acid sequences for entries named in this document (tags omitted).
UniProt P03372, whole entry D351Y: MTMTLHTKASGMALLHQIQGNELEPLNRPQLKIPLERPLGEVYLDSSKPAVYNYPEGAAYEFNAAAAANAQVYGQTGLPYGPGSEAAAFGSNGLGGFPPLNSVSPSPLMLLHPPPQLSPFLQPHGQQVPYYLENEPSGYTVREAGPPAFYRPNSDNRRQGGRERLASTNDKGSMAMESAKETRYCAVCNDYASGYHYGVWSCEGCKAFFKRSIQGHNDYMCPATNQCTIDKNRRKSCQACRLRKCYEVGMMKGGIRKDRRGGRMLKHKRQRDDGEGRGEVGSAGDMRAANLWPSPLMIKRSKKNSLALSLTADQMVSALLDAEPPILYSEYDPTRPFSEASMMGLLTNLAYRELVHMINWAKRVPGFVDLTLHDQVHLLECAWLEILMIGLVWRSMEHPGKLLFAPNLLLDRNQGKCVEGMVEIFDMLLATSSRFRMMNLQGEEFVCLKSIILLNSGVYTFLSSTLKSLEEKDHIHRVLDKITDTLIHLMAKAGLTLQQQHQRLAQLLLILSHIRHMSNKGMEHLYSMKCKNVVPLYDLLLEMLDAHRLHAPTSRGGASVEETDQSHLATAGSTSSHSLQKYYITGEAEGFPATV

Each structure is given as a SMILES string.

The data set deals with D351Y or D351E mutant ESR1 (Homo sapiens, UniProt P03372, D351Y). Particulars: receptor with D351Y or D351E mutation.

As for `CC/C(=C(\c1ccc(O)cc1)c1ccc(/C=C/C(=O)O)cc1)c1ccccc1` [GW7604], the “response of the mutant receptor to SERM therapy” value was “estrogenic response”.
